These results are taken from paper PMC3875306 (Bioorganic & medicinal chemistry letters, 2013).

Amino acid sequences for entries named in this document (tags omitted). Residues count along the entry.
UniProt Q13255, 19-1194: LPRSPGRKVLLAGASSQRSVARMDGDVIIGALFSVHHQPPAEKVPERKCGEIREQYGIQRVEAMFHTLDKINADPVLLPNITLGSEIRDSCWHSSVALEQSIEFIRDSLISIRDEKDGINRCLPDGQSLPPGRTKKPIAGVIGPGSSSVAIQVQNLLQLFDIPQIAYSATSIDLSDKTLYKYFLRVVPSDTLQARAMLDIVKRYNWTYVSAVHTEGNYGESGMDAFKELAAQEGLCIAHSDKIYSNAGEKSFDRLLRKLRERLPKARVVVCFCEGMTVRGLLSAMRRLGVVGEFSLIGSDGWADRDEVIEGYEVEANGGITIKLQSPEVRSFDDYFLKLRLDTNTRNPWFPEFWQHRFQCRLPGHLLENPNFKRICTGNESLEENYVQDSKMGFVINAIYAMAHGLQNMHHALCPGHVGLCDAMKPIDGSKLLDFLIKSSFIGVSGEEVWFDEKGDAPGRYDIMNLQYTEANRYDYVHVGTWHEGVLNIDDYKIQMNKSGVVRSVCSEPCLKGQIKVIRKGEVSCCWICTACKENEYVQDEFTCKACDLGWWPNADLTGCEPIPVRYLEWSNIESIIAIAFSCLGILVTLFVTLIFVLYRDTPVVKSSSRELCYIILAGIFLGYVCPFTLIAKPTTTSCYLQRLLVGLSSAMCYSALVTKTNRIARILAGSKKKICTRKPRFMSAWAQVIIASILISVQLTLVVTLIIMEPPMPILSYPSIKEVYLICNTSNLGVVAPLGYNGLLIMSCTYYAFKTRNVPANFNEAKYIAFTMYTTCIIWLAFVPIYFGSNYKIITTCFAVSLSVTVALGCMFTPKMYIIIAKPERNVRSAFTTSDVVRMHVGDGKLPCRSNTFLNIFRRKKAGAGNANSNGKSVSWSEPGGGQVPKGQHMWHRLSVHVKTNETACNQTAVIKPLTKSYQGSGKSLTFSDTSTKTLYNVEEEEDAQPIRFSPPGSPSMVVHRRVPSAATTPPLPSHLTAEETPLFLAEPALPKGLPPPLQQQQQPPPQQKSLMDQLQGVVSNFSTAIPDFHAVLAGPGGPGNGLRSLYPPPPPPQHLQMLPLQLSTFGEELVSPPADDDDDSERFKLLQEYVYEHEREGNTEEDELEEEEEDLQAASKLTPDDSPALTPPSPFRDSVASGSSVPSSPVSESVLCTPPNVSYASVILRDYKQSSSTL
UniProt P31424, 21-1203: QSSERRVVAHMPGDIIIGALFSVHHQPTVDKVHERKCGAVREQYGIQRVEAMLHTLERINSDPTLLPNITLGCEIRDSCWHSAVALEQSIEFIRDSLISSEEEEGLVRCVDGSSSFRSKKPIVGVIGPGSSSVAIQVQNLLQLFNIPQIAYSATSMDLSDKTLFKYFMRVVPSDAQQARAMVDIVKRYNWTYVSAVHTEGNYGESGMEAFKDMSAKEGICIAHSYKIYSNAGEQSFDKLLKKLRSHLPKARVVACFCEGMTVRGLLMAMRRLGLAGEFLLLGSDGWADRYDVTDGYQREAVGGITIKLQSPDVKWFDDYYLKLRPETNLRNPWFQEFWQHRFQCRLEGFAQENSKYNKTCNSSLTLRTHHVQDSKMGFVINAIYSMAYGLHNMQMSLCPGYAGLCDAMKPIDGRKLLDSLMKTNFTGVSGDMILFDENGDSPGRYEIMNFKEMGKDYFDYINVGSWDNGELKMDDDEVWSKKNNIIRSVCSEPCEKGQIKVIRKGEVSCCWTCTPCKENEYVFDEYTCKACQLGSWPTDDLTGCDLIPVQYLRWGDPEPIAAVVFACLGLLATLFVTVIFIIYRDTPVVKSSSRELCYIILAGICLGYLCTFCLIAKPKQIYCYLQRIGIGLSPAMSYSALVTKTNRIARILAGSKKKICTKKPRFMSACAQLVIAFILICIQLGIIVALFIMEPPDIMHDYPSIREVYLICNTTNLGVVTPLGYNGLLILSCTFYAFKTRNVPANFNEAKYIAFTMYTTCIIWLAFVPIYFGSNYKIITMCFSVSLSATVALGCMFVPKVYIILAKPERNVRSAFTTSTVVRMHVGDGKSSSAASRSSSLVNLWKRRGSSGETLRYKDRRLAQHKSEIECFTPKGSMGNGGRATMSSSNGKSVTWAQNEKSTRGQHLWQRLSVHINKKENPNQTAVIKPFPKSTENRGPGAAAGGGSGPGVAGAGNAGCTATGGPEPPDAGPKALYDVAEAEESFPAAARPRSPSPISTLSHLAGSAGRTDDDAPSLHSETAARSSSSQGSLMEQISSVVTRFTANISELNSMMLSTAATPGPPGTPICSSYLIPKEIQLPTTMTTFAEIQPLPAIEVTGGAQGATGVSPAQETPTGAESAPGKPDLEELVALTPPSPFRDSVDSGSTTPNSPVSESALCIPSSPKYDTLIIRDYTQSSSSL

Molecules are shown by their SMILES.

The target in one data set is human mGlu1 (Homo sapiens, UniProt Q13255). Put plainly: Calcium mobilization mGlu1 assay. The settings on record: LLE = pIC50 - cLogP. On the technique in general: Calcium flux is commonly read through the fluorescence of an indicator in the cells.
A further data set has as its target rat mGlu5 (Rattus norvegicus, UniProt P31424).

Turning to `C[C@@H]1CN(C(=O)C23CC4CC(CC(C4)C2)C3)CCN1c1ccccn1` [Compound 17], at human mGlu1, the “LLE (ligand-lipophilicity efficiency)” value worked out at 2.29. Further, the “selectivity for mGlu1 versus mGlu5” value on rat mGlu5 is given as “more than 60 fold”.
Consider `C[C@@H]1CN(c2ccccn2)CCN1C(=O)C12CC3CC(CC(C3)C1)C2` [Compound 15], for which the “LLE (ligand-lipophilicity efficiency)” value on human mGlu1 was determined as 2.30. Also, at rat mGlu5, the “selectivity for mGlu1 versus mGlu5” value is listed as “more than 60 fold”.
For `C[C@@H]1CN(c2cccnc2C#N)CCN1C(=O)C12CC3CC(CC(C3)C1)C2` [Compound 54], at human mGlu1, the “LLE (ligand-lipophilicity efficiency)” value is listed as 3.41.
